The text below walks through data of PubChem BioAssay (NCI).

Some results for these compounds are left out of this collection, so the calls shown say nothing about other tests.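 Compound exposure: 48 hours, 5 concentrations, 96-well plates. At the GI50, growth is halved.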

The subject of one assay is NCI/ADR-RES ovarian. The assay can be described thus: NCI anticancer screen, dose series, 48 h.
Another assay deals with BT-549 breast. Kind of assay: NCI anticancer screen, dose series, 48 h.

For the molecule `CC#CC(O)(C(=O)OCC1=CCCN(C)C1)c1ccccc1` (configuration not stated), the GI50 in the assay on NCI/ADR-RES ovarian was 23.8 µM; in the assay with BT-549 breast, 4.41 µM.
